Experimental data reported in US8598364B2, “Oligomer-protease inhibitor conjugates” (Nektar Therapeutics, priority 2007, dated 2013).

Tested on: CEM-SS cells

SMILES: CCC[C@@]1(CCc2ccccc2)CC(O)=C([C@H](CC)c2cccc(N(CCOCCOCCOCCOCCOCCOCCOC)S(=O)(=O)c3ccc(C(F)(F)F)cn3)c2)C(=O)O1
- CC50: 14.5 µM
